Laboratory results published in PMC7099768, “A positron emission tomography imaging study to confirm target engagement in the lungs of patients with idiopathic pulmonary fibrosis following a single dose of a novel inhaled αvβ6 integrin inhibitor” (Respiratory Research, 2020).

Tests used:
[1] = tested on: activation of TGFβ; conditions: mouse, in vivo; cited from earlier work

## Cc1cc(C)n(-c2cccc([C@H](CC(=O)O)CN3CC[C@@H](CCc4ccc5c(n4)NCCC5)C3)c2)n1 [GSK3008348, (S)-3-(3-(3,5-Dimethyl-1 H-pyrazol-1-yl)phenyl)-4-((R)-3-(2-(5,6,7,8-tetrahydro-1,8-naphthyridin-2-yl)ethyl)pyrrolidin-1-yl) butanoic acid]
1000 mcg nebulised, N=5
  Contact dermatitis, n (%): 1 (20) n (%)
  Tooth extraction, n (%): 1 (20) n (%)
Single nebulised 1000 mcg doses in two periods
  Serious adverse events: no SAEs reported
Single nebulised 1000 mcg doses, participants with IPF
  Tolerability: well tolerated
[1]
  Effect on activation of TGFβ: inhibited the activation of TGFβ
